{
  "sequences": {"note": "Chains of the proteins cited; added tags and fusions are not shown. Residues count along the entry.", "UniProt P35968, 786-1356 limits assumed": "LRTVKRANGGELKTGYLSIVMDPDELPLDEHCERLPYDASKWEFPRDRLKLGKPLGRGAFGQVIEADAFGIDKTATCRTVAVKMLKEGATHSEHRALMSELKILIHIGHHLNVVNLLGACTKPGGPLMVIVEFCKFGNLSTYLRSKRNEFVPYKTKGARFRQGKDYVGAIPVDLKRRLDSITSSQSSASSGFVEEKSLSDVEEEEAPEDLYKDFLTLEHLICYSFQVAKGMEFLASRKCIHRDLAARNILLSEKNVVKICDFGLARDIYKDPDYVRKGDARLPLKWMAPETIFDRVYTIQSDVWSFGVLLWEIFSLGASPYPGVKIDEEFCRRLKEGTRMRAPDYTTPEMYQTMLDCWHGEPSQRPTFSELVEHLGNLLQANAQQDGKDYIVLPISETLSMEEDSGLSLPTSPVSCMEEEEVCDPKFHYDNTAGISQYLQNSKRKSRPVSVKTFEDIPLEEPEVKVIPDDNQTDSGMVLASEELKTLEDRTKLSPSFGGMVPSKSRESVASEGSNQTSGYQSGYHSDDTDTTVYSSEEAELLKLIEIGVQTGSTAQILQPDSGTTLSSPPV", "UniProt Q02763, 776-1124 limits assumed": "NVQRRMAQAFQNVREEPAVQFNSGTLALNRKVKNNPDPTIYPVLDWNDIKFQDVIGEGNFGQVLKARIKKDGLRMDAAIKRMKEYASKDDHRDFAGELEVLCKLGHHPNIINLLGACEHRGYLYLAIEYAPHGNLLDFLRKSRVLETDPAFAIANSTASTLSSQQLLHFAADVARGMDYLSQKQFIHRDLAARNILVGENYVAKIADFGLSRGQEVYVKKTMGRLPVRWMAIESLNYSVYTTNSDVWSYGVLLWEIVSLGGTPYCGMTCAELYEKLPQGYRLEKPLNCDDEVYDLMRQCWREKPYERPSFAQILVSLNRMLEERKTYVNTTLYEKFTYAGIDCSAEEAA", "UniProt O14965, whole entry": "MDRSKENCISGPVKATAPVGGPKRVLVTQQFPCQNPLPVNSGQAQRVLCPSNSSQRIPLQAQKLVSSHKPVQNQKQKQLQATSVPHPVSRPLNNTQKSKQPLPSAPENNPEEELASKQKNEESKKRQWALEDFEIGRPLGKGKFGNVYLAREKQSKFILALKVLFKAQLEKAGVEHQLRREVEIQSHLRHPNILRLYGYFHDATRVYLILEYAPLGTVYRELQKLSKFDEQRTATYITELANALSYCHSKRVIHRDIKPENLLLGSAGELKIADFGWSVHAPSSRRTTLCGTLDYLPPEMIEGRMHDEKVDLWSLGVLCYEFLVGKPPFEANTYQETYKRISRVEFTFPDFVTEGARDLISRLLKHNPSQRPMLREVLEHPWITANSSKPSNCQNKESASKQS"},
  "source": "patent US7491710B2",
  "about": "(priority 2003, dated 2009)",
  "key": {"CDK2/cyclin E": {"target": "CDK2/cyclin E (Homo sapiens, UniProt P24941)", "test": "CDK2/cyclin E Flashplate assay in 96-well format", "type": "biochemical", "conditions": "read-out: CDK2 IC50"}, "human KDR enzyme": {"target": "human KDR enzyme (Homo sapiens, UniProt P35968)", "test": "In vitro KDR enzyme substrate phosphorylation assay (scintillation)", "type": "biochemical", "conditions": "read-out: KDR IC50"}, "human Tie2": {"target": "human Tie2 (Homo sapiens, UniProt Q02763)", "test": "Assay for phosphorylation of PLC by Tie2 (GST-Tie2, Flashplate)", "type": "biochemical", "conditions": "read-out: TIE2 IC50"}, "Aurora2 kinase": {"target": "Aurora2 kinase (Homo sapiens, UniProt O14965)", "conditions": "read-out: Au2 IC50"}},
  "note": "Some compounds may have been tested in ways that are not shown here.",
  "data": [
    {"substance": "Methylphosphonic acid 3-[6-(2-diethylamino-ethoxy)-1H-indol-2-yl]-1-indazol-5-yl ester methyl ester", "values": [
      {"measurement": "IC50", "setting": "CDK2/cyclin E", "result": 128, "unit": "nM"},
      {"measurement": "IC50", "setting": "human KDR enzyme", "result": 122, "unit": "nM"},
      {"measurement": "IC50", "setting": "human Tie2", "result": 13, "unit": "nM"},
      {"measurement": "IC50", "setting": "Aurora2 kinase", "result": 17, "unit": "nM"}
    ]}
  ]
}
